Measurements from ChEMBL document CHEMBL5260838 (J Med Chem, 2019).

Amino acid sequences for entries named in this document (tags omitted).
UniProt Q15858, whole entry: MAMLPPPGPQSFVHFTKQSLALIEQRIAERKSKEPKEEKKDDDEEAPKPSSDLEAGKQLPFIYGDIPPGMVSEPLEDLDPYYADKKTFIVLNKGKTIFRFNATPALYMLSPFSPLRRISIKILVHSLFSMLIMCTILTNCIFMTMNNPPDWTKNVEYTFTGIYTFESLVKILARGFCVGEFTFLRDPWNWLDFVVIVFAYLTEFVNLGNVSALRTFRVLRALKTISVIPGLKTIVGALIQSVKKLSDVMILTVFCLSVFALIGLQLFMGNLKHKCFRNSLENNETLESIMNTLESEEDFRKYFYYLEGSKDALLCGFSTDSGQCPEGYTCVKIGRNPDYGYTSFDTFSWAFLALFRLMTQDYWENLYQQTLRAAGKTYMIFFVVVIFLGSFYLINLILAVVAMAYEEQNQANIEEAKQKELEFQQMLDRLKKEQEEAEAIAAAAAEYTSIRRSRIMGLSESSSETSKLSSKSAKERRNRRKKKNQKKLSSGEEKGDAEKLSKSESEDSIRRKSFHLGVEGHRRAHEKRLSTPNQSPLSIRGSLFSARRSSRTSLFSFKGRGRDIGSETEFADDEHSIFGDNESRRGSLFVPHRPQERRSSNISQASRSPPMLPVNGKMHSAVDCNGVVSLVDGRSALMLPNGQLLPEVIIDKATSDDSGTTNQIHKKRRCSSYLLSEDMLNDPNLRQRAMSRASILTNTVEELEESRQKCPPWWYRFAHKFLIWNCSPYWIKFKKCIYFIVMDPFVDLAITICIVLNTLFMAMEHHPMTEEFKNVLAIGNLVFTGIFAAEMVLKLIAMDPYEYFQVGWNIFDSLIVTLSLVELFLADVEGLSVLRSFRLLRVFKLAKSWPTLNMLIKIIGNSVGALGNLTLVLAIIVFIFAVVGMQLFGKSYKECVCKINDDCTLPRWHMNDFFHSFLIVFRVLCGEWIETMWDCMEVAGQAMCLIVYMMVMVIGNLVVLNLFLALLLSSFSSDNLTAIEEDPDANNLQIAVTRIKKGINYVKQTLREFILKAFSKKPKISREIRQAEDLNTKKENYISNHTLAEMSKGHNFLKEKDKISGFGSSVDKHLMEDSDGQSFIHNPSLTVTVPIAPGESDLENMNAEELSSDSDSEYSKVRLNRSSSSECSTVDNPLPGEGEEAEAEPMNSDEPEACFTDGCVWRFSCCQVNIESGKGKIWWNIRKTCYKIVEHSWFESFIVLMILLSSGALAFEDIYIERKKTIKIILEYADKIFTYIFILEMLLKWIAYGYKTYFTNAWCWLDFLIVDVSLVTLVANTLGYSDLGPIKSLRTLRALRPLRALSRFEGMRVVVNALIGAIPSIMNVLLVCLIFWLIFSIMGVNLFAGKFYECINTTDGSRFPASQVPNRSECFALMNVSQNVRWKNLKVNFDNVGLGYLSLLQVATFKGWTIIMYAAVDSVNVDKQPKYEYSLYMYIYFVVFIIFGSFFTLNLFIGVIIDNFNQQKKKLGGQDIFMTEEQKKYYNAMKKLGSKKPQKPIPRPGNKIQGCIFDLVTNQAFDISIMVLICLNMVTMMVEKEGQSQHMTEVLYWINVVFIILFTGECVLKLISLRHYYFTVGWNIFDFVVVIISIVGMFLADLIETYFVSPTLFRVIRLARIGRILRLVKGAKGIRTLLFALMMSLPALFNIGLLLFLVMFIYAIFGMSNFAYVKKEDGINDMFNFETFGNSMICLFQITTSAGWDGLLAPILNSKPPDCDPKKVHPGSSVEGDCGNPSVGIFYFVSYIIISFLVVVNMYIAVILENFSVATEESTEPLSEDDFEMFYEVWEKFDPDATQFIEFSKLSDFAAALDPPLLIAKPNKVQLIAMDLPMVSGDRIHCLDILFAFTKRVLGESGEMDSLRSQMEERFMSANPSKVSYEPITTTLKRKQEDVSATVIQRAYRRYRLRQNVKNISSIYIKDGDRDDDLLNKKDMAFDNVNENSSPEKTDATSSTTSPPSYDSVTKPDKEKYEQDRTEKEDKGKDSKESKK

Columns and labels:
[1] = target: T1, Sodium channel protein type 9 subunit alpha (Homo sapiens, UniProt Q15858); experiment: Displacement of [3H]GX-545 from human Nav1.7 alpha subunit expressed in HEK293 cells co-expressing beta1 subunit by liquid scintillation counting analysis; assay type: cell-based
[2] = target: T1, Sodium channel protein type 9 subunit alpha; experiment: Inhibition of human Nav1.7 alpha subunit expressed in HEK293 cells co-expressing beta1 subunit at -60 mV holding potential by whole-cell patch voltage clamp electrophysiology recording; assay type: cell-based

`CC1(COc2cc(F)c(C(=O)NS(=O)(=O)C3CC3)cc2C2CC2)CCC(F)(F)CC1` gave an IC50 [1] of 15 nM and an IC50 [2] of 3 nM.
